Values of other authors, collected in patent US9732053B2, “1-[2-(2,4-dimethylphenylsulfanyl) phenyl]piperazine acetate in crystalline form” (LEK PHARMACEUTICALS D.D., priority 2013, dated 2017).

Conditions: room temperature; data from WO 2007/144005 A1 and WO 2010/121621 A1; cited from earlier work

**Q.** With D-(−)-tartrate as the substance, how does the Aqueous solubility read?
**A.** ≈0.4 mg base/mL

**Q.** With meso-tartrate as the substance, how does the Aqueous solubility read?
**A.** ≈0.7 mg base/mL

**Q.** For L-(+)-tartrate, which Aqueous solubility is on record?
**A.** ≈0.4 mg base/mL
